Reference: patent US9216999B2, “Substituted pyrrolo[2,3-h][1,6]naphthyridines and compositions thereof as JAK inhibitors” (priority 2011, dated 2015)

Sequences of proteins named here, by UniProt entry; tags and fusion partners are left off. A change or cut given only in a name is not applied to a line headed by its entry.
UniProt P29597: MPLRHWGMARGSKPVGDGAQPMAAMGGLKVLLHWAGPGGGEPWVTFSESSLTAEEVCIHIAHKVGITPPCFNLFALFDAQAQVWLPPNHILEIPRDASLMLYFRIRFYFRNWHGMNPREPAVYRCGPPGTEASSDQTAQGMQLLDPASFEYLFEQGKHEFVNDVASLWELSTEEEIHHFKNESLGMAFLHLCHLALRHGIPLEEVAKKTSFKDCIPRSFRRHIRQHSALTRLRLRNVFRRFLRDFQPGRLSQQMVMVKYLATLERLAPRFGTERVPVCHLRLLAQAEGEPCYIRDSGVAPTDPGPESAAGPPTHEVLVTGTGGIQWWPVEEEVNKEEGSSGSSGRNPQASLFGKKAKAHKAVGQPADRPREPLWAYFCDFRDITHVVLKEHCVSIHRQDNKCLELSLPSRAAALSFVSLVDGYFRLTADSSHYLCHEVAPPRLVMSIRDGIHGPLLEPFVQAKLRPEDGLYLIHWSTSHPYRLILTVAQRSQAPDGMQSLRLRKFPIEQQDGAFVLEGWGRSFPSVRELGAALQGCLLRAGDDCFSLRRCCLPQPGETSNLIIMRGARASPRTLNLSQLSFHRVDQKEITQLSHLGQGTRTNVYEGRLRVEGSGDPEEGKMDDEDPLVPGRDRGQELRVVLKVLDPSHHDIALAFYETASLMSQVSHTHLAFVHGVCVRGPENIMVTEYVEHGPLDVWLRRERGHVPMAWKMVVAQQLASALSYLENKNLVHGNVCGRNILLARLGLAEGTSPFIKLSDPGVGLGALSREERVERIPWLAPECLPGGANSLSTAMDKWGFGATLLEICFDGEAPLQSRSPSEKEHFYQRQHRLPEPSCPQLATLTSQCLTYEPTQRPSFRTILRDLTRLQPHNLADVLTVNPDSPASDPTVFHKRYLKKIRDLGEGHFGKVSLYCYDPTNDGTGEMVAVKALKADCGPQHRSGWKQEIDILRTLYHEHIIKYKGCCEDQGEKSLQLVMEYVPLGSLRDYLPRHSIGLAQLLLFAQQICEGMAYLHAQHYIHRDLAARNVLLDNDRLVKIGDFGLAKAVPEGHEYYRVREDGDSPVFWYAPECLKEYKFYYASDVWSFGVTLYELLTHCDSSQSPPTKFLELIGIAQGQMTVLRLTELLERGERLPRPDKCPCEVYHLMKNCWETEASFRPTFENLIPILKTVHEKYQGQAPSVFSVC
UniProt P52333: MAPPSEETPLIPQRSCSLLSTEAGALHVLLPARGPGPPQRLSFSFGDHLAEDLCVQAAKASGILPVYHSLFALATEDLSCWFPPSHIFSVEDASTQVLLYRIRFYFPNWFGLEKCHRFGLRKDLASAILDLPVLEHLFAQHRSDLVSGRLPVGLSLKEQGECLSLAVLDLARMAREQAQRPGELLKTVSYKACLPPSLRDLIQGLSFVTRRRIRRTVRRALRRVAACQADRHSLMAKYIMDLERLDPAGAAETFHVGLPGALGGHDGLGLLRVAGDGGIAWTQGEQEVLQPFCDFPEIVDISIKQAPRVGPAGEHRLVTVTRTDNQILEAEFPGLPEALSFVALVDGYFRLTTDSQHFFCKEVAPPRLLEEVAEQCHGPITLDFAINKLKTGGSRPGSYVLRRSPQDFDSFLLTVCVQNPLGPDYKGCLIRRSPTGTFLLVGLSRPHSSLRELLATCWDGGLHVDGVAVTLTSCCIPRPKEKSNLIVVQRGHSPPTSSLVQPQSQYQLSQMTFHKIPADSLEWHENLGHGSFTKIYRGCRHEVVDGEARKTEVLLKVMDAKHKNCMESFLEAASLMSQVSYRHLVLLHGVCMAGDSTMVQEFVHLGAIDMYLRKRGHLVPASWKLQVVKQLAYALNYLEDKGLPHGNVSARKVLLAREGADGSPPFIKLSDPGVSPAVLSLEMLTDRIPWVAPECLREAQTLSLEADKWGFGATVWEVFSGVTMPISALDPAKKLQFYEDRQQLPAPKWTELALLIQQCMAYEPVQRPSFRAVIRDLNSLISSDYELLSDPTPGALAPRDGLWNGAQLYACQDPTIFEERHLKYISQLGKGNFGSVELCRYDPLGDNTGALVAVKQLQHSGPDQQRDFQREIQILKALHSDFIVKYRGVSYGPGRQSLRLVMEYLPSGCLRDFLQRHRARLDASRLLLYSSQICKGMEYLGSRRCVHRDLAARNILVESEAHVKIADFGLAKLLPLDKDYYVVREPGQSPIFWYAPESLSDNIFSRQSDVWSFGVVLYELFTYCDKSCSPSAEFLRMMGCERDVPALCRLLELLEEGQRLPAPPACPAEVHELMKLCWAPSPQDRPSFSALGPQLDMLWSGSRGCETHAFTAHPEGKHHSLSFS

Legend:
Tyk2 [1] = molecular target: T1, Tyk2 (Homo sapiens (Human), UniProt P29597); assay: Tyk2 enzyme assay (Assay Example^b 1)
JAK2 [2] = molecular target: T2, JAK2 (Homo sapiens (Human), UniProt O60674); assay: Enzyme assay (Assay Example^a 1), JAK2; type: biochemical; details: ATP 100 μM, read-out: IC50 (μM) JAK2
Tyk2 [3] = molecular target: T1, Tyk2; assay: Enzyme assay (Assay Example^a 1), Tyk2; type: biochemical
JAK3 [4] = molecular target: T3, JAK3 (Homo sapiens (Human), UniProt P52333); assay: Enzyme assay (Assay Example^a 1), JAK3; type: biochemical; details: read-out: IC50 (μM) JAK3
JAK3 [5] = molecular target: T3, JAK3; assay: JAK3 enzyme assay (Assay Example^b 1); details: ATP 100 μM
JAK2 [6] = molecular target: T2, JAK2; assay: JAK2 enzyme assay (Assay Example^b 1); details: ATP 100 μM
JAK1 = JAK1 (Homo sapiens (Human), UniProt P23458); assay: Enzyme assay (Assay Example^a 1), JAK1; type: biochemical; details: ATP 100 μM

C[C@@H]1CCN(S(=O)(=O)CC(F)(F)F)C[C@@H]1n1ccc(=O)c2cnc3[nH]ccc3c21 (racemic) [compound 11]
IC50 (Tyk2 [1]; IC50 (μM) TYK2, Table^b 79, ATP 100 μM): 0.44 µM

C[C@@H]1CCN(Cc2ccccc2)C[C@@H]1n1ccc(=O)c2cnc3[nH]cc(Cl)c3c21 (racemic) [compound 22]
IC50 (Tyk2 [1]; IC50 (μM) TYK2, Table^b 80, ATP 100 μM): > 1 µM

C[C@@H]1CCN(Cc2ccccc2)C[C@@H]1n1cc(Br)c(=O)c2cnc3[nH]ccc3c21 (racemic) [compound 24]
IC50 (Tyk2 [1]; IC50 (μM) TYK2): > 1 µM

c1ccc(CCN[C@H]2CC[C@H](c3nnn4cnc5[nH]ccc5c34)CC2)cc1 [135b]
IC50 (JAK2 [2]; Table^a 154): 0.094 µM
IC50 (Tyk2 [3]; ATP 100 μM, Table^a 154): 0.18 µM

Fc1ccc(N[C@H]2CC[C@@H](c3nnn4cnc5[nH]ccc5c34)CC2)cc1 [381a, N-[cis-4-(7H-pyrrolo[3,2-e][1,2,3]triazolo[1,5-c]pyrimidin-1-yl)cyclohexyl]-4-fluoroaniline]
IC50 (JAK2 [2]): 0.22 µM
IC50 (JAK3 [4]): 0.26 µM
IC50 (Tyk2 [3]; ATP 100 μM): > 1 µM

Fc1ccc(N[C@H]2CC[C@H](c3nnn4cnc5[nH]ccc5c34)CC2)cc1 [381b, N-[trans-4-(7H-pyrrolo[3,2-e][1,2,3]triazolo[1,5-c]pyrimidin-1-yl)cyclohexyl]-4-fluoroaniline]
IC50 (JAK2 [2]): 0.057 µM
IC50 (JAK3 [4]): 0.42 µM
IC50 (Tyk2 [3]; ATP 100 μM): 0.24 µM

O=c1ccn(C2CCCCC2)c2c1cnc1[nH]cnc12 [compound 20]
IC50 (JAK3 [5]; IC50 (μM) JAK3, Table^b 78): 0.51 µM
IC50 (JAK2 [6]; IC50 (μM) JAK2, Table^b 79): 1.6 µM

CC(C)(C)OC(=O)N1CCC(c2nnn3cnc4[nH]ccc4c23)CC1 [compound 24]
IC50 (Tyk2 [3]): 5.3 µM

c1cc2c(ncn3nnc(C4CCNCC4)c23)[nH]1 [compound 27]
IC50 (JAK3 [4]): > 1 µM
IC50 (Tyk2 [3]): > 1 µM

N#Cc1ccc(CN2CCC(c3nnn4cnc5[nH]ccc5c34)CC2)c(F)c1 [compound 40]
IC50 (Tyk2 [3]): 0.15 µM

O=c1[nH]c(=O)n(C2CCCCC2)c2c1cnc1[nH]ccc12 [compound 53]
IC50 (JAK3 [5]; IC50 (μM) JAK3, Table^b 80): 0.047 µM
IC50 (JAK2 [6]; IC50 (μM) JAK2, Table^b 80): 0.048 µM

FC(F)(F)Oc1ccc(CNC[C@H]2CC[C@H](c3nnn4cnc5[nH]ccc5c34)CC2)cc1 [compound 110]
IC50 (JAK3 [4]): 0.51 µM
IC50 (Tyk2 [3]; ATP 100 μM, Table^a 154): 0.0049 µM

N#Cc1ccc(CN2CCC(c3ncn4cnc5[nH]ccc5c34)CC2)cc1 [compound 210, 4-{[4-(7H-Imidazo[1,5-c]pyrrolo[3,2-e]pyrimidin-1-yl)piperidin-1-yl]methyl}benzonitrile]
IC50 (JAK1; Table^a 154): 0.0047 µM
IC50 (JAK3 [4]; ATP 100 μM, Table^a 154): 0.077 µM
IC50 (Tyk2 [3]; ATP 100 μM, Table^a 154): 0.29 µM

O[C@@H]1CCN(C[C@H]2CC[C@H](c3nnn4cnc5[nH]ccc5c34)CC2)C1 [compound 267, (R)-1-{[trans-4-(7H-pyrrolo[3,2-e][1,2,3]triazolo[1,5-c]pyrimidin-1-yl)cyclohexyl]methyl}pyrrolidin-3-ol]
IC50 (JAK1): 0.001 µM
IC50 (JAK2 [2]): 0.032 µM
IC50 (JAK3 [4]): 0.79 µM
IC50 (Tyk2 [3]; ATP 100 μM): 0.019 µM

c1cc2c(ncn3nnc([C@H]4CC[C@H](CNC[C@H]5CCCO5)CC4)c23)[nH]1 [compound 289, 1-[trans-4-(7H-pyrrolo[3,2-e][1,2,3]triazolo[1,5-c]pyrimidin-1-yl)cyclohexyl]-N-{[(R)-tetrahydrofuran-2-yl]methyl}methanamine]
IC50 (JAK3 [4]): 0.85 µM
IC50 (Tyk2 [3]; ATP 100 μM): 0.16 µM

O=C[C@H]1CC[C@@H](c2nnn3cnc4[nH]ccc4c23)CC1 [compound 402, cis-4-(7H-Pyrrolo[3,2-e][1,2,3]triazolo[1,5-c]pyrimidin-1-yl)cyclohexanecarbaldehyde]
IC50 (JAK1): 0.011 µM
IC50 (JAK2 [2]): 0.03 µM
IC50 (JAK3 [4]): 0.13 µM
IC50 (Tyk2 [3]; ATP 100 μM): 0.1 µM

O[C@H]1CCN(C[C@H]2CC[C@@H](c3nnn4cnc5[nH]ccc5c34)CC2)C1 [compound 404, (S)-1-{[cis-4-(7H-pyrrolo[3,2-e][1,2,3]triazolo[1,5-c]pyrimidin-1-yl)cyclohexyl]methyl}pyrrolidin-3-ol]
IC50 (JAK1): 0.11 µM
IC50 (JAK2 [2]): 0.35 µM
IC50 (JAK3 [4]): 0.32 µM
IC50 (Tyk2 [3]; ATP 100 μM): > 1 µM

O[C@@H]1CCN(C[C@H]2CC[C@@H](c3nnn4cnc5[nH]ccc5c34)CC2)C1 [compound 405, (R)-1-{[cis-4-(7H-pyrrolo[3,2-e][1,2,3]triazolo[1,5-c]pyrimidin-1-yl)cyclohexyl]methyl}pyrrolidin-3-ol]
IC50 (JAK1): 0.025 µM
IC50 (JAK2 [2]): 0.25 µM
IC50 (JAK3 [4]): > 1 µM
IC50 (Tyk2 [3]; ATP 100 μM): 0.77 µM
